# Apparent affinities of Ab-14 variants for a coronavirus HR2 peptide

Reference: Li et al. 2023, doi:10.1038/s41467-023-39022-2. File: FLAb, binding data.

Antigen: PDVDLGDISGINAS, a 14-residue peptide of the SARS-CoV-2 spike HR2 region.

Each scFv is VH, a 15-residue (Gly4Ser)3 linker, VL, as in the parent Ab-14, and differs from it in the CDRs of the light chain only.
VH: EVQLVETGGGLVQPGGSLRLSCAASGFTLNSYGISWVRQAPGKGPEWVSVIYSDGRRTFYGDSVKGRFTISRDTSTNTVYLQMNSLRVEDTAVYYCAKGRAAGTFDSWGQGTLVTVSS
VL: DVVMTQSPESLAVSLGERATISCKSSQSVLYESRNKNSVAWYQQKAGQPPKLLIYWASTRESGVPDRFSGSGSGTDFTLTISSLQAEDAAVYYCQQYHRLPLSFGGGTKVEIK

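The parent was found by panning a naive human phage display library on the peptide. These sequences belong to a second round, designed from the earlier measurements on random variants of the parent. Several design methods are mixed in this list. Affinity was read by AlphaSeq, a pooled yeast mating assay with surface-displayed partners. The frequency of each diploid, read from paired DNA barcodes, reflects how well the two displayed proteins bind. Each replicate has its own calibration line, from reference interactions of the BCL2 family. Mating was done six times.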

Variants are written as CDR1, CDR2 and CDR3 of the light chain (limits as in the source). Parent: KSSQSVLYESRNKNSVA, WASTRES, QQYHRLPLS. Scale: log10 of Kd in nM, estimated from mating counts; low values are strong binders. The mean shown is taken over the replicates in which the pair was detected. Where no diploid with the target was found in any replicate, the entry reads "nd": below detection, most likely a poor binder, though not proof of it. Entries are sorted by rising average, undetected variants last. The parent sequence was in this pool as ten entries: three were never detected, three once, and four in most replicates, with averages from 0.34 to 2.37. The range of this assay differs from that of the first round, and the authors advise against merging the two. As a blank, each scFv also met three strains without target: over all light chain designs, 4% of these pairings were detected, typically at 2.64 and seldom below 1.59. The authors averaged sequences with at least three values out of six and counted those with two or fewer as poor binders.

With KVDQDDLYENRNKNSVA | QGSTRES | QQYHRLPLS the result was -0.53 (6 of 6 replicates).
With KLSPSVLYESRNKNSVA | GASTRES | QQYHRLPLS the result was -0.50 (6 of 6 replicates).
With KLQQSVEYESRNKNNVA | NASTRES | QQYHRLPLS the result was -0.44 (6 of 6 replicates).
With KLSQSVLYEERNKNSVA | HASTRES | QQYHRLPLS the result was -0.38 (6 of 6 replicates).
With KIGATLNQLMHQKNNVA | DLVEREN | QQYHRLPLS the result was -0.29 (6 of 6 replicates).
With KLQQQMLYESRNKNSVA | SASTREE | QQYHRLPLS the result was -0.29 (6 of 6 replicates).
With KMSQSVLMESRNKNSVA | DASTREE | QQYHRLPLS the result was -0.26 (6 of 6 replicates).
With KLSQSVMYESRNKNSVA | NASTRES | QQYHRLPLS the result was -0.14 (6 of 6 replicates).
With KLSQSELYESRNCNSVA | NASTRES | QQYHRLPLS the result was -0.07 (6 of 6 replicates).
With KVSQSNLYESRNKNSVA | NASTRES | QQYHRLPLS the result was -0.05 (6 of 6 replicates).
With KSSPSVPYESRNKNSVA | NASTREE | QDYHRLPLS the result was 0.02 (6 of 6 replicates).
With KSSQSVLYESTNKNSVA | GASTRES | QQYIRLPLS the result was 0.23 (6 of 6 replicates).
With KLQGSDLYESRVKNSVA | QASVRES | QQYHRLPLS the result was 0.25 (6 of 6 replicates).
With KSSQSHLYESRNKNSVA | NASTRES | QQYHRLPLS the result was 0.29 (6 of 6 replicates).
With KFQIGNNQGHSMEHNIA | EGTYAEE | QQYARLPLQ the result was 0.31 (6 of 6 replicates).
With KLSMGHGYGSRNKNSVA | QASQREE | QQYHRLPLS the result was 0.37 (6 of 6 replicates).
With KLSMSWPMLWRNHNSVA | SASTRES | QQYHRLPLS the result was 0.46 (6 of 6 replicates).

Second part, the sequence after the result:

0.47 (6 of 6 replicates): MFSQTVMYESTMRNNVA | QTSTREE | QQYDRLPLS.
0.65 (6 of 6 replicates): HMSMLTLQGVRHVNSVA | QMTTREN | QQYDHLPLS.
0.66 (6 of 6 replicates): IVSQLMIWGMHLKNSIA | EAQTRLN | QQYERLPLF.
0.74 (4 of 6 replicates): KMSWSVLYESRNKNSVA | WASTRES | QQYGRLPLS.
0.79 (6 of 6 replicates): TISGVMQQMSHSKSNVA | EVSMRLD | QQYFRLPLE.
1.12 (6 of 6 replicates): NLQYLEENSLIGASAIA | DVSIAVM | QQYSRLPLA.
1.19 (6 of 6 replicates): TLTQSYLMESHNKNSVA | DLSTRGS | QQYHRLPLS.
1.29 (6 of 6 replicates): KLDQSVLYESRNKNSVA | GASTRED | KQYHRLPLS.
1.50 (6 of 6 replicates): KLYDMAALTVNNIRNVA | DNDTREQ | QQYHRLPLS.
1.51 (6 of 6 replicates): KKSQSVLYESRNKNSVA | QASTRES | QQYHHLPLS.
1.56 (2 of 6 replicates): KIGHGLTTEMRNKNSVA | QTETRVS | QHYHRLPLS.
1.62 (6 of 6 replicates): GFSDSITEQIADANSIA | DRDERDV | QQYSRLPLI.
1.77 (5 of 6 replicates): KDRQSVLYESRNKNSVA | WASTRES | QQYHRLPLS.
2.08 (2 of 6 replicates): FIAGNSDNLYQDESSVA | ETNQVRE | QQYALLPLS.
2.11 (4 of 6 replicates): HIQEVDNQVENKYGNVA | DASEYLA | QQYFQLPIS.
2.43 (2 of 6 replicates): KSSQSVLYESRNKNAVA | WASTRES | FQYHRLPLS.
nd (0 of 6 replicates): MISQLMNMGSFRINSVA | QAQTRNE | QQYDRLPLT.